Reference: PubChem BioAssay AID485347 (National Center for Advancing Translational Sciences (NCATS), 2010)
This is a selection; strong and weak results do not stand in their true shares. Active and inactive are the calls of the source.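 How the source made its calls: active means potentiation over 3 SD above the plate norm (cut at about 30% in these data); inactive means the rest.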

Amino acid sequences for entries named in this document (tags omitted).
UniProt P14416, whole entry, looked up: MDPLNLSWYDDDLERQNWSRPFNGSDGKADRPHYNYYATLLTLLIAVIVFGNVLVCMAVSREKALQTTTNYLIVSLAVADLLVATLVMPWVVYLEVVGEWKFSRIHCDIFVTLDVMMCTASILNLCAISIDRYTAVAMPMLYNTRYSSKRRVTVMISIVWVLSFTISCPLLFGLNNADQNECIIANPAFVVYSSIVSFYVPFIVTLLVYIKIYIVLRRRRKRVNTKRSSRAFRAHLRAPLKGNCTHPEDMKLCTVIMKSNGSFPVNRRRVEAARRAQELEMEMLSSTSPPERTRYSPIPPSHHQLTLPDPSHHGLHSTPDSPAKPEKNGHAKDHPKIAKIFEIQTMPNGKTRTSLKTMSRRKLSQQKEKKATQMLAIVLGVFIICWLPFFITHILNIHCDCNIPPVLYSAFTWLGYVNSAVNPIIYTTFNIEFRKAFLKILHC

Biological target: D(2) dopamine receptor (Homo sapiens) (UniProt P14416)
Assay: HTS Assay for Positive Allosteric Modulators of the Human D2 Dopamine Receptor: Primary Screen for Potentiators; further: 0% is about no effect
Settings: HEK293 T-REx D2, calcium flux, EC20 dopamine potentiation; at 10 µM; hits give high values
From the text: NIH Chemical Genomics Center [NCGC] NIH Molecular Libraries Probe Centers Network [MLPCN] MLPCN Grant: NS064831-01 Assay Submitter (PI): David Sibley Dopamine receptors (DARs) are involved in the etiology and/or therapy of a number of neuropsychiatric and endocrine disorders. For instance, all receptor-based antiparkinsonian drugs work via stimulating the D2 DAR subtype whereas all FDA-approved antipsychotic agents are antagonists of this receptor. […] There are three different types of allosteric modulators that we are seeking, two of which will stimulate or augment receptor signaling, allosteric agonists and potentiators, while the third, allosteric antagonists, will attenuate receptor signaling. The present primary screening assay measures compound potentiation of an EC20 dopamine response by tracking calcium flux in a […], inducible Hek293 Trex D2 cell line.
Freshly passaged cells are plated in 1536 well black, clear bottom plates at a density of 4000 cells/well in 3 ul of complete media containing 1x tetracycline inducer. After an overnight incubation at 30 C in 5% CO2, cells are loaded with 2 ul of the no wash Calcium Assay Kit (ABD Bioquest) and incubated at room temperature for 30 to 90 minutes. A 10 cycle (1 second/cycle) baseline measurement is taken and then the FDSS online 1536 pintool delivers 23 nl of compound library (as well as dopamine controls) to the plate. The plate is measured for kinetically at 1 cycle/sec for 180 seconds and is considered to be the agonist portion of the assay (eg, compounds which activate a positive calcium response during this portion are flagged as potential agonists). Following the 180 second read, 1 ul of an EC20 of dopamine is delivered by an onboard pipette head. Measurements are taken kinetically for an additional 180 seconds.

Structure (SMILES) | potentiation
CC1CCN(C(=O)Oc2c(Cl)cc(Cl)c3cccnc23)CC1 | inactive: 6.01%
CC(C)=N/N=C(\N)N[N+](=O)[O-] | inactive: 22.7%
CN(C)C(=O)OCCc1n(C)cc[n+]1C | inactive: 5.16%
CCN(/C(=N/P(=O)(N1CCOCC1)N1CCOCC1)N1CCOCC1)c1ccc(OC)cc1 | inactive: 2.54%
Nc1ccc([As](=O)(O)c2ccc(N)cc2)cc1 | inactive: -0.455%
C[N+]1=C2C=CC=CC=C2SC12C([N+](=O)[O-])=CC([N+](=O)[O-])=C[C-]2[N+](=O)[O-] (centres undefined) | inactive: 2.21%
Cc1ccc(NP(=O)(Oc2ccccc2)Oc2ccccc2)nc1 | inactive: -4.36%
CCc1nc2c(n1)c1c(non1O)c1c2no[n+]1[O-] | inactive: -4.14%
O=[N+]([O-])c1cccc2n[nH]nc12 | inactive: 4.68%
CC(=O)N1C2C3N(C(C)=O)C1C1N(C(C)=O)C(C(N1C(C)=O)N3C(C)=O)N2C(C)=O | inactive: -8.98%
COc1ccc(C2=NCC(CBr)S2)cc1 (centres undefined) | inactive: 9.96%
O=C(O)CNc1ccc([As](=O)(O)O)cc1 | inactive: -2.2%
O=[N+]([O-])c1cccc(NC2=NCC(CBr)S2)c1 (centres undefined) | inactive: -8.15%
O=[N+]([O-])c1ncn(CCn2ncnc2[N+](=O)[O-])n1 | inactive: 0.329%
CC(C)(C)C(=O)NC(Sc1ccncn1)C(Cl)(Cl)Cl (centres undefined) | inactive: 4.3%
O=C(Nc1cc([As](=O)(O)O)ccc1O)c1ccccc1 | inactive: -8.65%
Nc1cccc2ccc([As](=O)(O)O)cc12 | inactive: 16.1%
CCN(N=Nc1nonc1N)c1nonc1N | inactive: 14.2%
O=[N+]([O-])c1cc([N+](=O)[O-])c(CCN2CCOCC2)c([N+](=O)[O-])c1 | inactive: 2.77%
CCOP(=O)(Nc1ccccc1)OCC | inactive: 4.93%
Cc1cc(SC(NC(=O)c2ccc(F)cc2)C(Cl)(Cl)Cl)ncn1 (centres undefined) | inactive: -1.93%
Cc1ccc(NP(=O)(Oc2ccccc2F)Oc2ccccc2F)nc1 | inactive: 0.137%

Structure (SMILES) | potentiation
O=P(Nc1nc2ccc(Cl)cc2s1)(c1ccccc1)c1ccccc1 | inactive: -1.9%
O=C(O)c1ccccc1[As](=O)(O)O | inactive: 15.1%
CC(=O)Nc1ccc([As](=O)(O)O)cc1 | inactive: 0.65%
Oc1ccccc1CNc1ccccn1 | inactive: 10.4%
Cc1c2non([O-])c-2c(C)[n+](=O)[n+]1[O-] | inactive: 11%
O=C(NC(Sc1ccncn1)C(Cl)(Cl)Cl)c1ccccc1 (centres undefined) | inactive: -0.203%
Nc1cc(N)c2nonc2c1[N+](=O)[O-] | inactive: -4.3%
Clc1ccc(Cl)c(NC2=NCC(CBr)S2)c1 (centres undefined) | inactive: 6.26%
CN1CCCC(OC(=O)C(c2ccccc2)c2ccccc2)C1 (centres undefined) | inactive: -21.4%
COc1ccccc1OP(=O)(Nc1ccc(C)cn1)Oc1ccccc1OC | inactive: -3.67%
Cc1ccc(OP(=O)(Nc2nccs2)Oc2ccc(C)cc2)cc1 | inactive: -4.57%
CN(C(=O)Cc1ccc(Cl)c(Cl)c1)[C@H]1CCCC[C@H]1N1CCCC1 | inactive: -6.16%
Cc1ccc(N/C(=N/P(=O)(N2CCOCC2)N2CCOCC2)N2CCOCC2)cc1 | inactive: 9.38%
NC(=O)c1cc([N+](=O)[O-])cc([N+](=O)[O-])c1N | inactive: 9.73%
CC(=O)Nc1ccc([As](=O)(O)O)c(O)c1 | inactive: -2.16%
CC(=O)Nc1ccc(Oc2c([N+](=O)[O-])cc([N+](=O)[O-])cc2[N+](=O)[O-])cc1 | inactive: 3.42%
C[C@@H]1C=CCP(=O)(Oc2ccccc2)O1 (some centres undefined) | inactive: 10.5%
C[C@H]1OP(=O)(Oc2ccccc2)C[C@@H]2O[C@@H]21 (some centres undefined) | inactive: 3.77%
CC(=O)c1ccc(N2CC2c2ccncc2)cc1 (centres undefined) | inactive: 14.1%
CC(C)(C)C(=O)NC(Sc1ccccc1)C(Cl)(Cl)Cl (centres undefined) | inactive: 1.33%
O=P1(Nc2nc3ccc(Cl)cc3s2)COc2ccccc2O1 (centres undefined) | inactive: -8.62%
CCOc1ccc(C2=NCC(CBr)S2)cc1 (centres undefined) | inactive: 5.14%

Structure (SMILES) | potentiation
Cc1ccccc1OP(=O)(Nc1ccccn1)Oc1ccccc1C | inactive: 8.9%
CN(C)C(=O)Oc1noc2ccccc12 | inactive: 4.48%
O=c1c2cc([N+](=O)[O-])ccc2[nH]c2c([N+](=O)[O-])cc([N+](=O)[O-])cc12 | inactive: -5.16%
O=C(OC1CN2CCC1CC2)c1ccccc1 (centres undefined) | inactive: 6.63%
CCC(=O)N1C2C3N(C(=O)CC)C1C1N(C(=O)CC)C(C(N1C(=O)CC)N3C(=O)CC)N2C(=O)CC | inactive: -3.41%
COC(=O)c1cc2c(s1)N=C(c1ccccc1)N(C)P2(=O)N1CCOCC1 (centres undefined) | inactive: -7.15%
Cc1ccc(OP(=O)(Nc2ccccn2)Oc2ccc(C)cc2)cc1 | inactive: 1.71%
CC(=O)NC(SC(=S)N(CC(C)C)CC(C)C)C(Cl)(Cl)Cl (centres undefined) | inactive: -2.89%
c1ccc(-c2nn[nH]n2)c(-c2nn[nH]n2)c1 | inactive: 6.4%
CCOC(=O)NC(Sc1ccccc1)C(Cl)(Cl)Cl (centres undefined) | inactive: -5.16%
Cc1ccc(NP(=O)(Oc2cccc(C)c2)Oc2cccc(C)c2)nc1 | inactive: 12%
O=C(NC1CCS(=O)(=O)C1)NP(=S)(Oc1ccccc1)Oc1ccccc1 (centres undefined) | inactive: 12.8%
O=C(OC1CN2CCC1CC2)c1cccc(Cl)c1 (centres undefined) | inactive: -5.2%
Nc1ccc([As](=O)(O)c2ccc([N+](=O)[O-])cc2)cc1 | inactive: -2.02%
C(Cc1nn[nH]n1)Cc1nn[nH]n1 | inactive: 10.8%
O=[N+]([O-])c1ccc(O)c(/C=N/Nc2ccc([N+](=O)[O-])cc2[N+](=O)[O-])c1 | inactive: -3.05%
O=[N+]([O-])c1ncn(CCn2cnc([N+](=O)[O-])n2)n1 | inactive: 5.33%
CC(=O)NC(SC(=S)N(C)C)C(Cl)(Cl)Cl (centres undefined) | inactive: 0.0475%
O=P(Nc1nc2ccccc2s1)(c1ccccc1)c1ccccc1 | inactive: -6.13%
O=P(Nc1ccccn1)(c1ccc(Br)cc1)c1ccc(Br)cc1 | inactive: -0.965%
